How the values were obtained:
[1] = target: T1, Dual specificity tyrosine-phosphorylation-regulated kinase 3 (Homo sapiens, UniProt O43781); assay: Inhibition of human recombinant GST-tagged DYRK3 expressed in Escherichia coli using GRSRSRSRSRSR as substrate and [gamma33P]ATP after 30 mins by scintillation counting
T1 sequence (O43781 whole entry): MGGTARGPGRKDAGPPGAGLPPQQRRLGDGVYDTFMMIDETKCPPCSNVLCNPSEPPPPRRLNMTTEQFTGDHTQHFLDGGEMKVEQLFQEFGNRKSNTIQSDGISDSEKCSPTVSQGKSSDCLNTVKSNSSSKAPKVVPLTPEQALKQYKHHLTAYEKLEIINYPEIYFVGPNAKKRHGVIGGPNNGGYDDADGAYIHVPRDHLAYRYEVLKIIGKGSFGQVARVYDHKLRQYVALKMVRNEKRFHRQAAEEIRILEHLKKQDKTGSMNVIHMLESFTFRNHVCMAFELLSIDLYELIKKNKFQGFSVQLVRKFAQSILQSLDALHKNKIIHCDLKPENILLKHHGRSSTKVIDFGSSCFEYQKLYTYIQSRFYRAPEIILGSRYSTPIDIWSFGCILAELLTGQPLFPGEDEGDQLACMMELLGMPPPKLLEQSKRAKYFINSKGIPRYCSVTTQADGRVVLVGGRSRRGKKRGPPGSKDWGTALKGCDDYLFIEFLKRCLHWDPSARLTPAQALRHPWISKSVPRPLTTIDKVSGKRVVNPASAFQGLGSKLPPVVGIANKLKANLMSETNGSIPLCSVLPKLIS

Sequences of proteins named here, by UniProt entry; tags and fusion partners are left off. A change or cut given only in a name is not applied to a line headed by its entry.
UniProt O35493: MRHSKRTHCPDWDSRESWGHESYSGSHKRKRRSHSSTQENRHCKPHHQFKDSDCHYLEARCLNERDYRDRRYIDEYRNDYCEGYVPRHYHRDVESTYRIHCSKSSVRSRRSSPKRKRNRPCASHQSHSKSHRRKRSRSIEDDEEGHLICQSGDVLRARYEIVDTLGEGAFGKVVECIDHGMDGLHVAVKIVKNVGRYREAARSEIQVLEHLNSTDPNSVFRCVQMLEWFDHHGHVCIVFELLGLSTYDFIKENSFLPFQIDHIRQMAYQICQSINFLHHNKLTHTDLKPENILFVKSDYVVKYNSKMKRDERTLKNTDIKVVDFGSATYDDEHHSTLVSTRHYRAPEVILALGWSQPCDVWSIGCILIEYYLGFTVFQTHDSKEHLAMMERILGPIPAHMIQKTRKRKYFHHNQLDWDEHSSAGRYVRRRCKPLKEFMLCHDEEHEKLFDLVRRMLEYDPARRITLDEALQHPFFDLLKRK
UniProt P49760, whole entry: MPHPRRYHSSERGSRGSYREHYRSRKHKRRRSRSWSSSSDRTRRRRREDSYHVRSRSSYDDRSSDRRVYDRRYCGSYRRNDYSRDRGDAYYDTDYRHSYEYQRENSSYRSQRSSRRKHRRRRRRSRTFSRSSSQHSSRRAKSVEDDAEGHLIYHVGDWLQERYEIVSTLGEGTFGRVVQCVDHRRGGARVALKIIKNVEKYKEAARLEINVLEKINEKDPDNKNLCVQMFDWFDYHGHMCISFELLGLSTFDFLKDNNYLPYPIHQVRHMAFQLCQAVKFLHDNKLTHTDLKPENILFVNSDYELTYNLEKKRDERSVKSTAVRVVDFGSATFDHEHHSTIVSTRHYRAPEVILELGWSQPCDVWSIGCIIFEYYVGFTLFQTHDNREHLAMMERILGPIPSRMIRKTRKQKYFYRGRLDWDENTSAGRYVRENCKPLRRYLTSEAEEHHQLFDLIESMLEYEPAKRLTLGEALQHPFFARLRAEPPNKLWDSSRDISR
UniProt P49759: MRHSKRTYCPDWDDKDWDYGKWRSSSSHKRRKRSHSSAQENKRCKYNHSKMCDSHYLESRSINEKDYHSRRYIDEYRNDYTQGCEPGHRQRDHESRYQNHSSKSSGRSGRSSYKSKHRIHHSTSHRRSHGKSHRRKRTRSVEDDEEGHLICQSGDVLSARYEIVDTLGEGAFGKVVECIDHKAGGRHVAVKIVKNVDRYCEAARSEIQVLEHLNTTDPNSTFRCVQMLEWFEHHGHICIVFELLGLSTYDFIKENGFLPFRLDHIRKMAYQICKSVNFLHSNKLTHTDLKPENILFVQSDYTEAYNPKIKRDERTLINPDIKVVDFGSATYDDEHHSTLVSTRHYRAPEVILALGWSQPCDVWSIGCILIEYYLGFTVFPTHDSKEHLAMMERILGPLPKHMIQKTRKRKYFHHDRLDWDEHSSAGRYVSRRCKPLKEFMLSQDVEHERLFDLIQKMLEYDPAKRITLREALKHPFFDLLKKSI
UniProt Q00535, whole entry: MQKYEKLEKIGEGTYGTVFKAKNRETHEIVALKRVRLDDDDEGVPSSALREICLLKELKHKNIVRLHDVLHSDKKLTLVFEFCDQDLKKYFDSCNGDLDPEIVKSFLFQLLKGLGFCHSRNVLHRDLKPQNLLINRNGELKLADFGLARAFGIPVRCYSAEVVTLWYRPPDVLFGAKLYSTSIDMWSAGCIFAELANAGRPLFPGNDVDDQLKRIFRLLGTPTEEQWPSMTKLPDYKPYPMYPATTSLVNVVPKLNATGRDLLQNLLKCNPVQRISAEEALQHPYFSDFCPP

[2] = target: Dual specificity protein kinase CLK4 (Mus musculus, UniProt O35493); assay: Inhibition of mouse recombinant GST-tagged CLK4 expressed in Escherichia coli using GRSRSRSRSRSR as substrate and [gamma33P]ATP after 30 mins by scintillation counting
Method in brief: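 Panel of purified kinases (recombinant from several species plus native enzymes), each assayed radiometrically over a range of inhibitor concentrations; IC50 in μM calculated from the dose-response curves.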

[3] = target: Dual specificity protein kinase CLK2 (Homo sapiens, UniProt P49760)
[4] = target: Dual specificity protein kinase CLK1 (Homo sapiens, UniProt P49759); assay: Binding affinity to CLK1
[5] = target: Cyclin-dependent kinase 5/CDK5 activator 1 (Homo sapiens, UniProt Q00535); assay: Inhibition of human recombinant CDK5/p25 using histone H1 as substrate and [gamma33P]ATP after 30 mins by scintillation counting; type: protein-complex assay

| Structure (SMILES) | IC50 [1] | IC50 [2] | Kd [3] | Kd [4] | IC50 [5] |
| --- | --- | --- | --- | --- | --- |
| O=C1NC(Nc2ccccc2)=N/C1=C\c1ccc2c(c1)OCO2 | 320 nM | 64 nM | 360 nM | 75 nM | – |
| COc1ccc2c(c1)[nH]c1c(C)nccc12 [HARMINE] | – | – | – | – | 8000 nM |

From ChEMBL document CHEMBL2176911 (J Med Chem, 2012)
